The text below walks through data of ChEMBL document CHEMBL5634116, “Strategies for developing retinoic acid receptor alpha-selective antagonists as novel agents for male contraception” (Eur J Med Chem, 2023).

The nature of this data set: Plasma protein binding in CD-1 mouse assessed as recovery fraction at 10^-5 M. In kind it is ADME, cell-free. To be noted: 10 µM, dose 1 10^-5M.

As to `Cc1ccc(C2=CC(C)(C)Oc3ccc(C(=O)Nc4ccc(C(=O)O)cc4)cc32)cc1`, the Drug recovery is 100%.
